Reference: US11890335B2, “ErbB peptide pharmaceutical and vaccine compositions and therapeutic uses thereof for cancer” (L2 Diagnostics, LLC, priority 2017, dated 2024)

Legend:
MDA-MB-453 cells [1] = assay: ADCC assay with human PBMC, MDA-MB-453 cells; assay type: cell-based; conditions: 1:25 serum or 20 μg/ml antibody, human PBMC 50:1, 4 h, compared to rituximab
Description: All experimental sera were heat-inactivated (56° C., 30 min) prior to use. A431 or MDA-MB-453 cells were incubated with a 1:25 dilution of heat-inactivated sera or control antibody (20 μg/ml) 30 min at 37° C. in 96-well U bottom plates. Freshly isolated human peripheral blood mononuclear cells (PBMC) from healthy donors were incubated with antibody coated target cells at a 50:1 effector to target ratio for 4 h at 37° C. Fifty microliters of each cell culture supernatant was then assayed for lactate dehydrogenase released from dead cells using the CytoTox96 Non-Radioactive Cytotoxicity Assay (Promega) per manufacturer's instructions. Percent cytotoxicity was calculated as [(experimental-effector spontaneous-target spontaneous)/(target maximum-target spontaneous)]×100.

[2] = test system: MDA-MB-453 cells (HER2-positive, EGFR-negative); assay: Flow cytometry, binding to MDA-MB-453 cells; set-up: species or system human; conditions: serum 1:100 or antibody 5 μg/ml
Description: (§1) A431 and MDA-MB-453 cell lines were used for antibody binding flow cytometry experiments. Cells (10^5 cells/sample) were stained with a 1:100 dilution of serum in PBS with 0.1% BSA and 0.05% sodium azide for 1 h at 4° C. Cells were washed and incubated with a 1:100 dilution of either anti-mouse IgG fluorescein isothiocyanate (FITC; Sigma) or anti-human IgG AlexaFluor 488 (Molecular Probes, Invitrogen) for 1 h at 4° C. Some samples were further stained using anti-FITC AlexaFluor 488. Cells were washed and fixed in PBS+1% paraformaldehyde. Cells were analyzed on a FACSCalibur (BD Biosciences) with FlowJo software (Tree Star). Controls included unstained cells and cells stained with secondary antibody alone.

human EGFR on A431 cells = assay: Flow cytometry, binding to A431 cells; conditions: serum 1:100 or cetuximab 5 μg/ml
Description: as §1

MDA-MB-453 cells [3] = conditions: control antibodies, 10-40 mg/ml concentrations tested

cetuximab: anti-human EGFR monoclonal antibody [reference compound]
ADCC killing of MDA-MB-453 cells (MDA-MB-453 cells [1]): failed to induce MDA-MB-453 cell killing | Binding to MDA-MB-453 cells by flow cytometry [2]: did not | Staining of A431 cells by flow cytometry (human EGFR on A431 cells): stain | MDA-MB-453 cell growth inhibition (MDA-MB-453 cells [3]): failed to inhibit

trastuzumab: anti-human HER2 monoclonal antibody [reference compound]
Binding to MDA-MB-453 cells by flow cytometry [2]: bound
